The data set in a line: Stability of indicator gels towards oxidant: 1 mM hydrogen peroxide in PBS at 37° C. It counts as physicochemical. As to conditions: indicator gel. The procedure: Several compounds of the present invention were each copolymerized with hydroxyethyl methacrylate (HEMA), acrylic acid and ethylene glycol dimethacrylate (EGDMA) to form water insoluble polymer gels, as in Example 3. Their stability towards oxidant was assessed by subjecting the gels to 1 mM hydrogen peroxide in PBS at 37° C. […] In a further experiment, the fluorescent change (% modulation) from 0 to 20 mM glucose of various indicator gels was measured and the results are shown in FIG. 8.

These results are taken from patent publication US8143068B2, “Oxidation resistant indicator molecules” (Sensors for Medicine and Science, Inc., priority 2006, dated 2012).

For the substance “9-[N-[6-(4,4,5,5,-tetramethyl-1,3,2-dioxaborolano)-3-(N,N-dimethylsulfamoyl)benzyl]-N-[3-(methacrylamido)propylamino]methyl]-10-[N-[6-(4,4,5,5,-tetramethyl-1,3,2-dioxaborolano)-3-(N,N-dimethylsulfamoyl)benzyl]-N-[2-(carboxyethyl)amino]methyl]anthracene sodium salt [4-Dimethylsulfonamide]”, the “t 1/2” value worked out at 9 min.

For the substance “9-[N-[6-(4,4,5,5,-tetramethyl-1,3,2-dioxaborolano)-3-chlorobenzyl]-N-[3-(methacrylamido)propylamino]methyl]-10-[N-[6-(4,4,5,5,-tetramethyl-1,3,2-dioxaborolano)-3-chlorobenzyl]-N-[2-(carboxyethyl)amino]methyl]anthracene sodium salt [Indicator 4-Chloro]”, the “t 1/2” value stood at 15 min.
